Measured values as given in PubChem BioAssay AID624319 (Sanford-Burnham Center for Chemical Genomics, 2012).
The entries are a selection whose mix differs from that of the whole data set. Activity calls are given as the source filed them. No stated cut-off is given here; in the data, active means inhibition mostly above about 39% (no sharp cut-off); inactive means mostly below about 34%.

Amino acid sequences for entries named in this document (tags omitted).
UniProt Q96LD8, whole entry: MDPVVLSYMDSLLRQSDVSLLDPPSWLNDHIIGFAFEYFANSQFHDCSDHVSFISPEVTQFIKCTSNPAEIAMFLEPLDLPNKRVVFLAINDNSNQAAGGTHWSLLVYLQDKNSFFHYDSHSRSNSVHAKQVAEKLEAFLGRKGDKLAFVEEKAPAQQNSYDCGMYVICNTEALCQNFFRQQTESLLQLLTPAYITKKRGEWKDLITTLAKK

molecular target: Sentrin-specific protease 8 (Homo sapiens) (UniProt Q96LD8); assay: human SENP8 protease inhibitors, confirmation, biochemical, Nedd8 protein substrate, single concentration (AID 624319); conditions: purified SENP8, Nedd8-AMC/pro-Nedd8 cleavage fluorescence, 30 min; at 25 µM; active compounds read high

Row | Compound | inhibition
1 | CN(C)C(=O)c1c([N+](=O)[O-])cc([N+](=O)[O-])cc1[N+](=O)[O-] | active: 69.4%
2 | O=[N+]([O-])c1cc([N+](=O)[O-])c(Nc2ccccn2)c([N+](=O)[O-])c1 | active: 58.6%
3 | O=[N+]([O-])c1cc([N+](=O)[O-])c(Nc2cccnc2)c([N+](=O)[O-])c1 | inactive: 37.9%
4 | CCc1ccc(OP(C)(=O)N2CCN(c3ccc([N+](=O)[O-])cc3)CC2)cc1 (stereo not given) | inactive: 14.7%
5 | Cc1ccc(Nc2c([N+](=O)[O-])cc([N+](=O)[O-])cc2[N+](=O)[O-])cc1 | inactive: 39.6%
